Our source for the Emax values is ChEMBL document CHEMBL5042526, “Design, Synthesis, and Biological Evaluation of Triazolone Derivatives as Potent PPARα/δ Dual Agonists for the Treatment of Nonalcoholic Steatohepatitis” (J Med Chem, 2022).

The chains behind the UniProt entries cited, without tags or fusion partners. Where a name states a change or a piece, a line headed by the entry shows the natural chain unless it says otherwise.
UniProt P37231: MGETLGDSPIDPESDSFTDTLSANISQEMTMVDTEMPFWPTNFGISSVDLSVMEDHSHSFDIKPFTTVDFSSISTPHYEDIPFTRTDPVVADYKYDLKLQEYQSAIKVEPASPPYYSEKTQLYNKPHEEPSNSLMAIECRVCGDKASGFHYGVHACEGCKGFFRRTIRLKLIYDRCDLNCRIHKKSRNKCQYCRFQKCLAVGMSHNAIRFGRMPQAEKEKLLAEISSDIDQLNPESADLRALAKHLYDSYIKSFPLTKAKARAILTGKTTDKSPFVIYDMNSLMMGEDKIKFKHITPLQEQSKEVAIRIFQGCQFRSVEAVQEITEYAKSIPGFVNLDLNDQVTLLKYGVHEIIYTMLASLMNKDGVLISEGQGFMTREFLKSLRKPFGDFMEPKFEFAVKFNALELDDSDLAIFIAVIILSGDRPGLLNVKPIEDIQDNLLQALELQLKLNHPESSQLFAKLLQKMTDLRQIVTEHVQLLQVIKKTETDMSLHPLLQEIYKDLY

What all share (conditions): filed as agonist, dose 10.0 nM
The target in test [1] is T1, Peroxisome proliferator-activated receptor delta (Homo sapiens) (UniProt Q03181).
T1 sequence (whole entry): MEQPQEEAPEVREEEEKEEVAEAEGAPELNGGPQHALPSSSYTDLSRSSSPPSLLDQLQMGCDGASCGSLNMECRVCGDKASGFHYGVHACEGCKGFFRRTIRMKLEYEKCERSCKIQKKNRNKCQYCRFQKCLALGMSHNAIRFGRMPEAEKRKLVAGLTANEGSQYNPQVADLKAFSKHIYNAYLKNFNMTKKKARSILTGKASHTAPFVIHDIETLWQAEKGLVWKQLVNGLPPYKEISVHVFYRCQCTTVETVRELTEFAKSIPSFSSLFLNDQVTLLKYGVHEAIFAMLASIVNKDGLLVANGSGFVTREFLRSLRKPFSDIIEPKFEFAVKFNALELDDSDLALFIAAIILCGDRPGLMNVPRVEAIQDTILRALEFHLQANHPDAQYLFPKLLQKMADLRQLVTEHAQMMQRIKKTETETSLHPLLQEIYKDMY

Test [2] deals with T2, Peroxisome proliferator-activated receptor alpha (Homo sapiens) (UniProt Q07869).
T2 sequence (whole entry): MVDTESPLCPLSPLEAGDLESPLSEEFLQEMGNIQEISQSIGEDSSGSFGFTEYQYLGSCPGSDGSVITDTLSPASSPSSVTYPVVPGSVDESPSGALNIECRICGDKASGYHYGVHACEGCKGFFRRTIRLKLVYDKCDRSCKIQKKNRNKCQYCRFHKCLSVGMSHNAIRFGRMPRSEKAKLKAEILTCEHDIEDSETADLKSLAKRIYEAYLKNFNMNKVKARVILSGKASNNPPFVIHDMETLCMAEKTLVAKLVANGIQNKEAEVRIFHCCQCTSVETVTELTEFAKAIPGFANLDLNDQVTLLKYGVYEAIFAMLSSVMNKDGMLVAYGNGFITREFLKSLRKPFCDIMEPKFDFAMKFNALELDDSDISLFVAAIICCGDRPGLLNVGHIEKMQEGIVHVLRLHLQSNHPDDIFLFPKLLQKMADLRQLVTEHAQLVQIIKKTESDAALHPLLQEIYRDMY

Test [3] addresses Peroxisome proliferator-activated receptor gamma (Homo sapiens, UniProt P37231).

As for `CCc1cc(Cn2ncn(-c3ccc(C(F)(F)F)cc3)c2=O)cc(CC)c1OC(C)(C)C(=O)O`, the Emax is 83% in test [1] and 131% in test [2].

Consider `Cc1cc(Cn2ncn(-c3ccccc3)c2=O)cc(C)c1OC(C)(C)C(=O)O`, for which, in test [3], the Emax turned out to be 80%.

Turning to `CC(C)(Oc1ccc(Cn2ncn(-c3ccc(OC(F)(F)F)cc3)c2=O)cc1C(F)(F)F)C(=O)O`, the Emax in test [3] came out at 98%; in test [2], 134%.

Turning to `Cc1cc(Cn2ncn(-c3ccc(Br)cc3)c2=O)cc(C)c1OC(C)(C)C(=O)O`, the Emax in test [1] came out at 122%; in test [3] it was 151%.

Take `Cc1cc(Cn2ncn(-c3ccc(C(F)(F)F)cc3)c2=O)cc(C)c1OC(C)(C)C(=O)O`: the Emax in test [2] came out at 102%.

For the compound `CC(C)(Oc1c(F)cc(Cn2ncn(-c3ccc(C(F)(F)F)cc3)c2=O)cc1F)C(=O)O`, in test [1], the Emax was found to be 76%.

For the compound `Cc1cc(Cn2ncn(-c3ccc(C(F)(F)F)cc3)c2=O)cc(C(F)(F)F)c1OC(C)(C)C(=O)O`, the figures for the Emax in test [1] and in test [3] were 98% and 150%, respectively.

In test [1], `Cc1cc(Cn2ncn(-c3ccc(-c4ccccc4)cc3)c2=O)cc(C)c1OC(C)(C)C(=O)O` gave an Emax of 93%.

For the compound `Cc1cc(SCn2ncn(-c3ccc(C(F)(F)F)cc3)c2=O)cc(C)c1OC(C)(C)C(=O)O`, the Emax in test [3] was 96%; in test [2], 92%.

Turning to `Cc1cc(Cn2ncn(-c3ccc(C(C)C)cc3)c2=O)cc(C)c1OC(C)(C)C(=O)O`, the figures for the Emax in test [3] and in test [2] were 134% and 92%, respectively.

With `Cc1cc(Cn2ncn(-c3ccc(F)cc3)c2=O)cc(C)c1OC(C)(C)C(=O)O`, the Emax in test [1] is 116%; in test [2], 106%.

Turning to `CC(C)(Oc1ccc(Cn2ncn(-c3ccc(C(F)(F)F)cc3)c2=O)cc1C(F)(F)F)C(=O)O`, the Emax was found to be 102% in test [1] and 115% in test [3].

`Cc1cc(Cn2ncn(-c3cccc(C(F)(F)F)c3)c2=O)cc(C)c1OC(C)(C)C(=O)O`: the Emax in test [1] turned out to be 117%.

Take `CC(C)(Oc1ccc(Cn2ncn(-c3ccc(C(F)(F)F)cc3)c2=O)cc1)C(=O)O`: in test [1], the Emax was determined as 93%.

In the case of `Cc1cc(Cn2ncn(-c3ccc(OC(F)(F)F)cc3)c2=O)cc(C(F)(F)F)c1OC(C)(C)C(=O)O`, the Emax in test [1] is 111%; in test [2], 98%.

For `Cc1cc(Cn2ncn(-c3ccc(C(F)(F)F)cc3)c2=O)ccc1OC(C)(C)C(=O)O`, the Emax in test [1] came to 85%; in test [2] it was 108%.

For the compound `Cc1cc(CCn2ncn(-c3ccc(C(F)(F)F)cc3)c2=O)cc(C)c1OC(C)(C)C(=O)O`, the Emax in test [1] was found to be 101%; in test [3] it was 46%.

As for `CC(C)(Oc1c(Cl)cc(Cn2ncn(-c3ccc(C(F)(F)F)cc3)c2=O)cc1Cl)C(=O)O`, the figures for the Emax in test [3] and in test [2] were 87% and 101%, respectively.
